These are literature values, as cited in patent US10226472B2, “Methods for the treatment of breast cancer” (SYNDAX PHARMACEUTICALS, INC., priority 2011, dated 2019).

Read-outs that look alike come from different tables or passages of the source.

The series has as its system HER2-positive breast cancer cell lines (BT474 and SKBR3). To be noted: following trastuzumab exposure, cited from earlier work.

On to “trastuzumab: monoclonal antibody that blocks the effects of the growth factor protein HER2”, for which, for the setting “resistant cells”, the G0/G1 arrest is 68% and the “cells in S-phase” value is given as 14%. Besides, the G0/G1 arrest (sensitive cells) was 84%.
